{
  "source": "patent EP0429856A2",
  "about": "“Pharmaceutical preparation containing a metal salt of ibuprofen and process for making same” (Dolorgiet GmbH & Co. KG, priority 1989, dated 1991)",
  "assay": "Solubility of ibuprofen salts in saturated solutions at room temperature (HPLC, UV detection)",
  "text": "Zur Bestimmung der Löslichkeit der Ibuprofen-Salze werden bei Raumtemperatur gesättigte Lösungen hergestellt. Ein aliguoter Teil dieser Lösungen wird mit einem mit der Lösung mischbaren Lösungsmittel verdünnt und der Gehalt an Ibuprofen mittels HPLC über eine Reversed-Phase-Säule und UV-Detektion bestimmt.",
  "data": [
    {"substance": "Ibuprofen-Calciumsalz", "values": [
      {"measurement": "Löslichkeit von Ibuprofen-Salzen bei Raumtemperatur", "setting": "1,2-Propandiol", "value": 330, "unit": "mg Ibuprofen/ml"},
      {"measurement": "Löslichkeit von Ibuprofen-Salzen bei Raumtemperatur", "setting": "1,2-Propandiol/Glycerin/Wasser (2/4/3;v/v/v)", "value": 7, "unit": "mg Ibuprofen/ml"},
      {"measurement": "Löslichkeit von Ibuprofen-Salzen bei Raumtemperatur", "setting": "1,2-Propandiol/Polyethylenglykol 400/Wasser (5/3/6;v/v/v)", "value": 3, "unit": "mg Ibuprofen/ml"},
      {"measurement": "Löslichkeit von Ibuprofen-Salzen bei Raumtemperatur", "setting": "Cabrylic/Capric Triglyceride (Miglyol 810)", "value": "0,4 mg Ibuprofen/ml"},
      {"measurement": "Löslichkeit von Ibuprofen-Salzen bei Raumtemperatur", "setting": "Caprylic/Capric Triglyceride (Miglyol 812)", "value": "0,2 mg Ibuprofen/ml"},
      {"measurement": "Löslichkeit von Ibuprofen-Salzen bei Raumtemperatur", "setting": "Ethanol", "value": 100, "unit": "mg Ibuprofen/ml"},
      {"measurement": "Löslichkeit von Ibuprofen-Salzen bei Raumtemperatur", "setting": "Ethanol/1,2-Propandiol/Wasser (1/4/4;v/v/v)", "value": 12, "unit": "mg Ibuprofen/ml"},
      {"measurement": "Löslichkeit von Ibuprofen-Salzen bei Raumtemperatur", "setting": "Glycerin", "value": 20, "unit": "mg Ibuprofen/ml"},
      {"measurement": "Löslichkeit von Ibuprofen-Salzen bei Raumtemperatur", "setting": "Isopropylmyristat", "value": "0,3 mg Ibuprofen/ml"},
      {"measurement": "Löslichkeit von Ibuprofen-Salzen bei Raumtemperatur", "setting": "Paraffinum supl.", "value": "< 0,1 mg Ibuprofen/ml"},
      {"measurement": "Löslichkeit von Ibuprofen-Salzen bei Raumtemperatur", "setting": "Polyethylenglykol 400", "value": 38, "unit": "mg Ibuprofen/ml"},
      {"measurement": "Löslichkeit von Ibuprofen-Salzen bei Raumtemperatur", "setting": "Polyoxyethylen-(7)-glycerin-kokosnußöfettsäure-ester", "value": 10, "unit": "mg Ibuprofen/ml"},
      {"measurement": "Löslichkeit von Ibuprofen-Salzen bei Raumtemperatur", "setting": "Polyoxyethylierte Olein-Glyceride (Labrafil M 1944 CS)", "value": 37, "unit": "mg Ibuprofen/ml"},
      {"measurement": "Löslichkeit von Ibuprofen-Salzen bei Raumtemperatur", "setting": "Wasser", "value": 3, "unit": "mg Ibuprofen/ml"}
    ]}
  ]
}
